This assay has as its target D(2) dopamine receptor (Bos taurus, UniProt P20288).

Protein sequences, listed by entry. Tags and fused reporters are not part of them.
UniProt P20288, whole entry: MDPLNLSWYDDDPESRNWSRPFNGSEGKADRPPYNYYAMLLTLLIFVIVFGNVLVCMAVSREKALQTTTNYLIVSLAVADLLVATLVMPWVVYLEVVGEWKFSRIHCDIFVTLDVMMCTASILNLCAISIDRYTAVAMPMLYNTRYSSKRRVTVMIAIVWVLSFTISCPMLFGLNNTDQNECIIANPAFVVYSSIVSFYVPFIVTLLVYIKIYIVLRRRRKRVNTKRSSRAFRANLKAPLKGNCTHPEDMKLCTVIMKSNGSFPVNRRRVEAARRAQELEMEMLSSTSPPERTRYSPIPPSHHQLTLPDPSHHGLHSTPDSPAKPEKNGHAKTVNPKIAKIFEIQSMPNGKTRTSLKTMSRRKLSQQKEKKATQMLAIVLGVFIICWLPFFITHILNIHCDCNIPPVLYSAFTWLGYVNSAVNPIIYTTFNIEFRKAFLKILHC

For one compound, Ki results are on record in BindingDB's records for PubMed 8386236 (Whitby Research, 1993).

Usually Ki stands for a measure of affinity in units of concentration, obtained from inhibition or displacement.

For the compound `CC(C)(C)[C@]1(O)CCN2C[C@H]3c4ccccc4CCc4cccc(c43)[C@@H]2C1`, the Ki was above 10 µM.
